Experimental findings from patent publication US5256533A, “As a probe of serotonin uptake harmaline” (Board of Regents, The University of Texas System, priority 1990, dated 1993) are described below.

In general, IC50 refers to the concentration needed to halve the response being measured. A higher IC50 goes with weaker potency.

For test [1], the target named is [^3 h]Noradrenaline binding sites of brain tissue. The test can be described thus: Inhibition of [3H]noradrenaline binding by brain homogenates. To be noted: concentration causing 50% inhibition of isotope binding. On the procedure:
(§1) TABLE 1 illustrates the general inhibitory effects of beta carbolines on neurotransmitter binding by brain tissue. Samples of brain tissue rich in the respective neurotransmitter binding sites were obtained, homogenized, washed and incubated with a series of beta carboline concentrations. After subsequent additions of tritiated neurotransmitters, the extent of beta carboline inhibition of labeled neurotransmitter binding was measured. As shown, a variety of beta carbolines were effective antagonists of several neurotransmitters. IC50 values indicate concentrations of the indicated beta carboline which causes a 50% inhibition of the respective neurotransmitter isotope binding with brain homogenates. […] These beta carbolines may be used as vital stains for the respective neurotransmitter systems, accumulating in living tissue.

The target of test [2] is [^3 H]Choline binding sites of brain tissue. The test can be described thus: Inhibition of [3H]choline binding by brain homogenates. To be noted: concentration causing 50% inhibition of isotope binding. On the procedure: as §1
Test [3] deals with [^3 H]GABA binding sites of brain tissue. The test is described as follows: Inhibition of [3H]GABA binding by brain homogenates. To be noted: concentration causing 50% inhibition of isotope binding. The method, then:
as §1

Test [4] has as its system ^3 H-serotonin uptake by retina. The test can be described thus: Inhibition of 3H-serotonin uptake in retina (FIG. 5). Type of test: cell-based.

For the compound `Cc1nccc2c1[nH]c1ccccc12` [1-methyl-beta-carboline], the figures for the half-inhibitory concentration (IC50) in test [1], in test [2] and in test [3] were 44 µM, 85 µM and 168 µM, respectively.

For the compound `CN(C)CCC=C1c2ccccc2CCc2ccccc21` [amitryptaline], the “Inhibition of ^3 H-serotonin uptake by retina” value in test [4] is “antagonized”.

For `CN(C)CCCN1c2ccccc2CCc2ccc(Cl)cc21` [chlormipramine], in test [4], the “Inhibition of ^3 H-serotonin uptake by retina” value is “antagonized”.
